Molecular target: T1, P2X purinoceptor 7 (Rattus norvegicus, UniProt Q64663)
T1 sequence (Q64663 whole entry): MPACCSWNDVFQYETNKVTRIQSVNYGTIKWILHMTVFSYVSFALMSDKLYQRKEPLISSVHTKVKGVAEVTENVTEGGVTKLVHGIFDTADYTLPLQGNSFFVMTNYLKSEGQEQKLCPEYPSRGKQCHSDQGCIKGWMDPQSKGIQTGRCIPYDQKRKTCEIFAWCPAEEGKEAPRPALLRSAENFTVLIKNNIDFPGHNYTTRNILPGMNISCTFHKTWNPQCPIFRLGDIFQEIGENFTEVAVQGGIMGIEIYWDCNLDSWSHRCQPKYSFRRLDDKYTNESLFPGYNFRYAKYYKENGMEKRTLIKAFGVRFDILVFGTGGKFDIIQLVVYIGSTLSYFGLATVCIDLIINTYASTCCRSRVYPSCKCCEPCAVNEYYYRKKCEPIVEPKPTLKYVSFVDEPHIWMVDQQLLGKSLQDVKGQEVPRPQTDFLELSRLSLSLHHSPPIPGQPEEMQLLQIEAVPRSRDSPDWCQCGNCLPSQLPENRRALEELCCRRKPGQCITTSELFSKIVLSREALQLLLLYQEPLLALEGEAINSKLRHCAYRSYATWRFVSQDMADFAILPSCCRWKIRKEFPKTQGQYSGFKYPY
Assay: Antagonist activity at rat P2X7 receptor expressed in 1321N1 cells assessed as inhibition of Bz-ATP-induced Ca2+ flux after 30 mins by FLIPR assay

IC50: > 10 µM
SMILES: C[C@@H]1Cn2c(nnc2-c2cnccn2)C(=O)N1Cc1cccc(C(F)(F)F)c1Cl [US10047092, 15]

Source: BindingDB's records for doi:10.1016/j.bmcl.2015.12.052 (Janssen Research and Development, 2016)
